Experiments:
[1] = purified preparation of Example 1; 1 unit = 1 μmol α-keto-ε-aminocaproic acid per minute at 37° C.
Experimental: The activity of the present enzyme was measured in accordance with Soda's method (Analytical Biochemistry Vol. 25, p. 228, 1968) in the following manner. A reaction mixture consisting of 0.7 ml of 0.1 M potassium phosphate buffer (pH 8.0), 0.1 ml of catalase (750 U/ml), 0.1 ml of 0.1 M L-lysine solution and 0.1 ml of the present enzyme solution was incubated at 37° C. for 20 minutes with gentle shaking. After the incubation the reaction was terminated by the addition of 0.1 ml of 25% trichloroacetic acid. To the resulting reaction mixture were added 1.9 ml of 1 M acetate buffer (pH 5.0) and 0.8 ml of 0.1% 3-methyl-2-benzothiazolone hydrazone hydrochloride solution. The mixture was further incubated at 30° C. for 30 minutes and then allowed to cool to room temperature, after which measurement of optical density at 318 nm was carried out. The formed α-keto-ε -aminocaproic acid thus formed was determined from the resulting calibration curve. One unit of the enzyme was defined as the quantity of the enzyme catalyzing the formation of 1 μmol of α-keto-ε-aminocaproic acid at 37° C. per minute. The relative activity of the enzyme was also assayed by manometric and polarographic determination of the oxygen consumption.

[2] = incubation at pH 7.4, 20 minutes

For L-lysine α-oxidase, the Specific activity [1] was 85.5 units/mg of protein and the “Temperature up to which the enzyme is stable” value [2] was “up to 55 °C”.
